This assay is described as follows: NCI Yeast Anticancer Drug Screen. Data for the wt2 strain (AID 169).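 Also: 0% = growth of vehicle-treated yeast cultures.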 The settings on record: S. cerevisiae wt2 strain growth inhibition, stronger effect = higher value. The protocol:
Growth inhibition of yeast strains with defined genetic alterations is measured as a screen for potential anti-cancer activity. Selected strains with alterations in DNA damage repair or cell cycle control were exposed to compounds and growth inhibition was measured relative to vehicle treated controls. The strain used in this assay is wt2

Only a part is listed here, and it is no random draw. Some salts or complexes appear as unconnected parts, following the source record. Some compounds were tested as several samples or in several runs, with calls that do not always agree. Calls of active or inactive are those of the source. Rule as the data show it: active = growth inhibition above about 70%; inactive = the rest.

With `COc1ccccc1N.O=[N+]([O-])c1cc([N+](=O)[O-])cc([N+](=O)[O-])c1`, the growth inhibition by setting is: (at 1.2 µM) inactive: -3%; (at 3.7 µM) inactive: 1%; (at 11.0 µM) inactive: 39%; (at 33.0 µM) active: 99%; (at 100.0 µM) active: 99%.
Take `[Au+].[Au+].c1ccc([PH+](c2ccccc2)c2ccccc2)cc1.c1ccc([PH+](c2ccccc2)c2ccccc2)cc1.n1n[n-]c(-c2nnn[n-]2)n1`: the growth inhibition reads like this: (at 1.2 µM) inactive: -30%; (at 3.7 µM) inactive: 26%; (at 11.0 µM) active: 97%; (at 33.0 µM) active: 98%; (at 100.0 µM) active: 97%.
As for `Nc1ccccc1.O=[N+]([O-])c1cc([N+](=O)[O-])cc([N+](=O)[O-])c1`, the growth inhibition reads like this: (at 1.2 µM) inactive: -2%; (at 3.7 µM) inactive: -2%; (at 11.0 µM) inactive: 28%; (at 33.0 µM) active: 99%; (at 100.0 µM) active: 99%.
As to `Cc1c2ccccc2cc2ccccc12.O=[N+]([O-])c1cc([N+](=O)[O-])c(O)c([N+](=O)[O-])c1`, the growth inhibition by setting is: (at 1.2 µM) inactive: -1%; (at 3.7 µM) inactive: 8%; (at 11.0 µM) inactive: 4%; (at 33.0 µM) inactive: 28%; (at 100.0 µM) active: 93%.
With `Cc1ccc2ccc3ccc4ccccc4c3c2c1.O=C1c2cc([N+](=O)[O-])ccc2-c2c1cc([N+](=O)[O-])cc2[N+](=O)[O-]`, the growth inhibition was inactive: -3% (at 1.2 µM); inactive: -2% (at 3.7 µM); inactive: -1% (at 11.0 µM); inactive: 1% (at 33.0 µM); inactive: 9% (at 100.0 µM).
The matching figures for `[Au+].[N-]=[N+]=N.c1ccc([PH+](c2ccccc2)c2ccccc2)cc1`: inactive: 13%, active: 99%, active: 99%, active: 97% and active: 93%.
On to `[Au].[C-]#N.[C-]#N`, for which the growth inhibition was inactive: -22% (at 1.2 µM); inactive: -30% (at 3.7 µM); inactive: -36% (at 11.0 µM); inactive: -24% (at 33.0 µM); inactive: -8% (at 100.0 µM).
With `O=[N+]([O-])C(F)(COCC(O)CO)[N+](=O)[O-]` (stereo not given), the growth inhibition was inactive: 0% (at 1.2 µM); inactive: 14% (at 3.7 µM); inactive: 19% (at 11.0 µM); inactive: 47% (at 33.0 µM); active: 90% (at 100.0 µM).

(Values after PubChem BioAssay (NCI).)
